{
  "source": "patent US20240376607A1",
  "about": "“METHOD AND COMPOSITION FOR TREATING DILUTION STEAM GENERATOR SYSTEMS” (BL Technologies, Inc., priority 2021, published 2024)",
  "assay": "Autoclave V-L distribution (volatility) in DSG Water A",
  "assay_type": "physicochemical",
  "settings": "LC-MS",
  "description": "Autoclave experiments were conducted using a Parr pressure vessel. Each test was carried out for 4 days at 185° C. (˜150 psig) with DSG water containing about 150 ppm of filmer. Ammonia was pre-mixed in test solution to achieve a pH range of 8.2 to 8.8 in both the vapor and liquid phases. For each run, vapor and liquid samples were collected at the regular interval. These samples were analyzed through the liquid chromatography-mass spectrometry (LC-MS) technique to determine the filmer concentration.",
  "data": [
    {"substance": "Dodecynyl Succinic Acid [DDSA]", "values": [
      {"measurement": "Liquid", "setting": "Day 1, 185° C.", "result": 165, "unit": "ppm"},
      {"measurement": "Vapor", "setting": "Day 1, 185° C.", "result": 1.6, "unit": "ppm"},
      {"measurement": "Liquid", "setting": "Day 2, 185° C.", "result": 177, "unit": "ppm"},
      {"measurement": "Vapor", "setting": "Day 2, 185° C.", "result": 1.8, "unit": "ppm"},
      {"measurement": "Liquid", "setting": "Day 3, 185° C.", "result": 190, "unit": "ppm"},
      {"measurement": "Vapor", "setting": "Day 3, 185° C.", "result": 2.8, "unit": "ppm"},
      {"measurement": "Liquid", "setting": "Day 4, 185° C.", "result": 190, "unit": "ppm"},
      {"measurement": "Vapor", "setting": "Day 4, 185° C.", "result": 3.5, "unit": "ppm"}
    ]},
    {"substance": "octenyl succinic acid [OSA]", "values": [
      {"measurement": "Liquid", "setting": "Day 1, 185° C.", "result": 69, "unit": "ppm"},
      {"measurement": "Vapor", "setting": "Day 1, 185° C.", "result": 1.3, "unit": "ppm"},
      {"measurement": "Liquid", "setting": "Day 2, 185° C.", "result": 86, "unit": "ppm"},
      {"measurement": "Vapor", "setting": "Day 2, 185° C.", "result": 1.9, "unit": "ppm"},
      {"measurement": "Liquid", "setting": "Day 3, 185° C.", "result": 86, "unit": "ppm"},
      {"measurement": "Vapor", "setting": "Day 3, 185° C.", "result": 1, "unit": "ppm"},
      {"measurement": "Liquid", "setting": "Day 4, 185° C.", "result": 97, "unit": "ppm"},
      {"measurement": "Vapor", "setting": "Day 4, 185° C.", "result": 2.4, "unit": "ppm"}
    ]}
  ]
}
